Assay results: patent US20260384672A1, “FLUORESCENT INDICATORS FOR METAL ION DETECTION AS SUBSTRATES FOR A SELF-LABELING ENZYME” (published 2026)

How the values were obtained:
[1] = system: HALOTAG® protein; assay: Fluorescence polarization with HALOTAG Standard Protein; details: PBS+CHAPS
Description: First, made the buffer solution in which to dissolve/test the desired compounds which is composed of TMR ligand (Promega) as a positive control, HALOTAG®Standard Protein (Promega), and Thallos HALOTAG®Ligand (ION). Combined 1×PBS (Gibco) with 0.01% w/v CHAPS hydrate (Sigma). Added adequate amount of TMR (Promega) solution to the buffer solution to have a working concentration of 200 nM. Hydrolyzed Thallos HALOTAG® Ligand (ION) using KOH. Added adequate amount of this solution to the buffer solution to have a working concentration of 200 nM. Added adequate amount of HALOTAG® Standard Protein (Promega) to the buffer solution to have a working concentration of 800 nM.
Added two sets of 20 μL of PBS+CHAPS solution, 20 μL of TMR in PBS+CHAPS solution, and 20 μL of Thallos HALOTAGR Ligand in PBS+CHAPS solution to a 384-well plate (Falcon). Used a FlexStation (Molecular Devices) to collect data. Set the excitation wavelength to 550 nm and the emission wavelength to 590 nm when reading TMR data. For the Thallos data, set excitation to 485 nm and emission to 515 nm. Collected baseline fluorescence polarization data for 1 minute. After adding the compound being tested to each well, added 20 ul of PBS+CHAPS solution to one set of wells and 20 ul of HALOTAG® Standard protein in PBS+CHAPS solution to the other set of wells. Collect fluorescence polarization data for 10 minutes.

[2] = system: HEK HT(+) cells; assay: Cell based assay: fluorescence change in HEK HT(+) cells after Tl+; details: loaded 30 minutes, 1 mM Tl+ stimulus
Description: Seeded HEK 293 cells (ATCC) into a 6 well plate. Used pHTC HALOTAG® CMV-neo Vector and Lipofectamine 2000 (THERMO) to transfect cells. Allowed cells to grow and look healthy before adding 300 μg/ml G418 solution. Conducted limited dilution cloning in 96-well plate. Confirmed HALOTAG® expression by adding TMR. Expanded cells that expressed HALOTAG®.
(§1) Prepared dye load buffer with the desired indicator, dye load may include probenecid, pluronic, TRS. Add the dye load to cells (both wild type (WT) and HALOTAG® expressing (HT+) cells that had been allowed to grow in a 96-well plate overnight. Collect bottom read fluorescence and images on a Cytation5 (BioTek). In some cases after loading, cells were washed to allow unbound dye to efflux from cells over a period of time. Wash solution may be dye load or media, may include TRS, may not include probenecid. Collect unloading data on the Cytation5 as well. Then added stimulus solution to record fluorescence change and differences between WT cells and HT+ cells. Use both Cytation5 and FlexStation.
(§2) HEK WT and HEK HT(+) cells were loaded with compound I-2. After loading for 30 minutes (pre-stimulus images), a stimulus solution of 1 mM Tl^+ was added.

[3] = system: HEK WT cells; assay: Cell based assay: fluorescence change in HEK WT cells after Tl+
Excerpt: as §1, §2

[4] = Potassium sensitivity on streptavidin coated slides; details: streptavidin coated glass slide, increasing K2SO4, vs non-biotinylated control
Description: A glass slide was coated with streptavidin. Compound VII-11, having a biotin coupling agent, was added to the slide. The slide was treated with increasing concentrations of potassium ions (K2SO4).

[5] = with HALOTAG® protein, 200 nM indicator, 800 nM protein, 10 minutes

Question: Which fluorescence polarization ([1]; HALOTAG protein not added) does the source give for `COc1cc(NC(=O)c2ccc3c(c2)C(=O)OC32c3ccc(OC(C)=O)cc3Oc3c2ccc(OC(C)=O)c3CN(C)Cc2cn(CC(=O)NCCOCCOCCCCCCCl)nn2)ccc1N(CC(=O)OCOC(C)=O)CC(=O)OCOC(C)=O` (stereo not shown) here?
Answer: decreased or remained the same

Question: And the fluorescence polarization [1, 5]?
Answer: increased

Question: Which increase in fluorescence [2] does the source give for `CC(=O)OCOC(=O)CN(CC(=O)OCOC(C)=O)c1ccc(C(=O)Nc2ccc3c(c2)C(=O)OC32c3ccc(OC(C)=O)cc3Oc3cc(OC(C)=O)ccc32)cc1OCc1cn(CC(=O)NCCOCCOCCCCCCCl)nn1` here?
Answer: large increase in fluorescence

Question: What about the “retention of the indicator” value [3] of the same molecule?
Answer: do not retain significant concentrations

Question: And the increase in fluorescence ([3]; loaded 30 minutes, 1 mM Tl+ stimulus)?
Answer: negligible increase

Question: What about the fluorescence polarization ([1]; HALOTAG protein not added) of the same molecule?
Answer: decreased or remained the same

Question: And the fluorescence polarization [1, 5]?
Answer: increased

Question: What does the source list for `CC(=O)OCOC(=O)CN(CC(=O)OCOC(C)=O)c1ccccc1OCCOc1cc2c(cc1N(CC(=O)OCOC(C)=O)CC(=O)OCOC(C)=O)C(=O)OC21c2ccc(OC(C)=O)cc2Oc2cc(N3CC(C(=O)NCCOCCOCCCCCCCl)C3)ccc21` (stereo not shown)?
Answer: fluorescence polarization ([1]; HALOTAG protein not added): decreased or remained the same; fluorescence polarization [1, 5]: increased

Question: With `COCCOc1cc(-c2c3cc(CCC(=O)NCCOCCOCCNC(=O)CCCC[C@@H]4SC[C@@H]5NC(=O)N[C@@H]54)c(=O)c(Cl)c-3oc3c(Cl)c(O)c(CCC(=O)NCCOCCOCCNC(=O)CCCC[C@@H]4SC[C@@H]5NC(=O)N[C@@H]54)cc23)ccc1N1CCOc2cc(C)ccc2N2CCOCCOCCN(CCOCCOCC2)c2ccc(C)cc2OCC1` as the molecule, how does the “K sensitivity when immobilized” value [4] read?
Answer: retains its sensitivity to potassium
